# B1: huA33-C825: control BsAb; anti-GPA33 targeting BsAb made on the same platform (antibody)
# heavy: EVQLLESGGGLVQPGGSLRLSCAASGFAFSTYDMSWVRQAPGKGLEWVATISSGGSYTYYLDSVKGRFTISRDSSKNTLYLQMNSLQAEDSAIYYCAPTTVVPFAYWGQGTLVTVSSASTKGPSVFPLAPSSKSTSGGTAALGCLVKDYFPEPVTVSWNSGALTSGVHTFPAVLQSSGLYSLSSVVTVPSSSLGTQTYICNVNHKPSNTKVDKRV[omitted - human IgG1 Fc with changes]
# light: DIQMTQSPSSLSVSVGDRVTITCKASQNVRTVVAWYQQKPGLAPKTLIYLASNRHTGVPSRFSGSGSGTDFTFTISSLQPEDIATYFCQQHWSYPLTFGQGTKVEVKRTVAAPSVFIFPPSDEQLKSGTASVVCLLNNFYPREAKVQWKVDNALQSGNSQESVTEQDSKDSTYSLSSTLTLSKADYEKHKVYACEVTHQGLSSPVTKSFNRGECGGGGSGGGGSASHVKLQESGPGLVQPSQSLSLTCTVSGFSLTDYGVHWVRQSPGKGLEWLGVIWSGGGTAYNTALISRLNIYRDNSKNQVFLEMNSLQAEDTAMYYCARRGSYPYNYFDAWGCGTTVTVSSGGGGSGGGGSGGGGSQAVVIQESALTTPPGETVTLTCGSSTGAVTASNYANWVQEKPDHCFTGLIGGHNNRPPGVPARFSGSLIGDKAALTIAGTQTEDEAIYFCALWYSDHWVIGGGTRLTVLG
# Test system: BSA-(Y)-DOTA-Bn
# Test: Surface plasmon resonance (Biacore T100) binding to BSA-(Y)-DOTA-Bn
# Settings: bivalent analyte model
# Experimental: Biacore T100 Biosensor, CMS sensor chip, and related reagents were purchased from GE Healthcare. A BSA-(Y)-DOTA-Bn conjugate was prepared as previously described. The antigen was immobilized using the Amine Coupling Kit (GE Healthcare). Purified BsAbs were analyzed, and data were fit to a bivalent analyte model using the Biacore T100 evaluation software as previously described.
molecule,measurement,setting,value
B1,koff,,0.00022 s⁻¹
same,kon,,19000 M⁻¹ s⁻¹
same,Kd,read-out: overall KD,11.6 nM

# Reference: patent publication US20210017295A1, “BISPECIFIC BINDING AGENTS AND USES THEREOF” (MEMORIAL SLOAN KETTERING CANCER CENTER, priority 2018, published 2021)
